These results are taken from ChEMBL document CHEMBL1152120, “RP 73163: A bioavailable alkylsulphinyl-diphenylimidazole ACAT inhibitor” (Bioorg Med Chem Lett, 1996).

The target of test [1] is T1, Sterol O-acyltransferase 1 (Rattus norvegicus, UniProt O70536).
T1 sequence (O70536 whole entry): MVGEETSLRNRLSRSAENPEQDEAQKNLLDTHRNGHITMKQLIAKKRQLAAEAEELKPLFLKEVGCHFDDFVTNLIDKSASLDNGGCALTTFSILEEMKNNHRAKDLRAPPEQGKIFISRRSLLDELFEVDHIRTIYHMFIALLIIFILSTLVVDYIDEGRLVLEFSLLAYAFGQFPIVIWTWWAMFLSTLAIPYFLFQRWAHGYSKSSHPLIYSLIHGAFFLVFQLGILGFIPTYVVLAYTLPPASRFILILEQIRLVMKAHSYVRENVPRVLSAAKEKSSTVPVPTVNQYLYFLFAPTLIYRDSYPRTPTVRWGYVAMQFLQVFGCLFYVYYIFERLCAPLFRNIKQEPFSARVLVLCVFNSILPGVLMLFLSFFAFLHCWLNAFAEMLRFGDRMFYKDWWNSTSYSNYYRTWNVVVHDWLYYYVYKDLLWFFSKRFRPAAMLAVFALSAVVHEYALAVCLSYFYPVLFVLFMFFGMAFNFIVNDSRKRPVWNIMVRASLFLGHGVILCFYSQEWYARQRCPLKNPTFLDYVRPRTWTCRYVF
The test is described as follows: biochemical. The class given is tissue-based, Liver.

In test [2] the target is T2, Acyl-CoA:cholesterol acyltransferase (Oryctolagus cuniculus, UniProt Q95214).
T2 sequence (Q95214 whole entry): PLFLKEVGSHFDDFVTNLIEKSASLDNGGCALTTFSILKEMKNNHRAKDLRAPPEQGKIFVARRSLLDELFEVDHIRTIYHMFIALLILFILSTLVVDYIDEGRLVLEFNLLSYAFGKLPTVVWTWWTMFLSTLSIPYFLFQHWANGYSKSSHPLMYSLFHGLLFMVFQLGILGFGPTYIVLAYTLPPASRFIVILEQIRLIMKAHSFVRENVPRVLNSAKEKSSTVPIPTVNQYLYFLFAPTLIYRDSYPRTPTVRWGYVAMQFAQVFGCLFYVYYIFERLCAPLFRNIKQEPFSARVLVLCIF
Put plainly: Compound was evaluated for inhibitory activity against Acyl coenzyme A:cholesterol acyltransferase in microsomes from rabbit intestine.

In test [3] the target is T2, Acyl-CoA:cholesterol acyltransferase. Put plainly: Compound was evaluated for inhibitory activity against Acyl coenzyme A:cholesterol acyltransferase in microsomes from rabbit adrenal.

Usually IC50 stands for the concentration that inhibits the measured activity by half. Molecule `Cc1cc(C)n(CCCCC[S+]([O-])c2nc(-c3ccccc3)c(-c3ccccc3)[nH]2)n1` (stereo not drawn) gave a 50% inhibitory concentration (IC50) in test [1] of 86 nM.
On to `Cc1cc(C)n(CCCCCSc2nc(-c3ccccc3)c(-c3ccccc3)[nH]2)n1`, for which the IC50 in test [2] was 108 nM; in test [3], 80 nM.
